GIV-Gai inh: inhibitors of GIV GBA-motif binding to rat Galpha-i3; P08753; Galpha-i3/FITC-GIV peptide fluorescence polarization, 90 min; hits give low values; scaled: aluminum fluoride 0%, vehicle 100%; percent of control (FP), % (test concentration not listed); actives 0.42% (n = 210,000); AID 1224905;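 active = replicate mean at 85% of control or lower, very high polarization wells dropped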;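 also: wells of about 15 µL received 100 nL stock; the first replicate is given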
HCMV UL50-53 inh: inhibitors of HCMV UL50-UL53 nuclear egress complex interaction | HTRF UL50-UL53 interaction, normalized percent inhibition | inhibition, % (concentration not given with the values) | actives 0.15% (n = 190,000); in the data active = inhibition above about 27%, passing the limit was not always enough
GIV Gai FP conf: confirmation of inhibitors of GIV binding to rat Galpha-i3 | actives 38% (n = 580) | shares compounds with GIV-Gai inh | AID 1259350 | FITC-GIV peptide binding to Galphai3, fluorescence polarization; stronger effect = lower value | fluorescence polarization, mP at 100 µM;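 active = inhibition score of 15 or more, meaning 100 minus mean polarization as percent of control over three replicates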
GIV Gai AS conf: GIV-Galpha-i3 inhibition, AlphaScreen confirmation; actives 39% (n = 580); AlphaScreen counts at 100 µM; AlphaScreen Galphai3-GIV binding, purified proteins, 90 min; stronger effect = lower value; shares compounds with GIV-Gai inh;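 active = inhibition score at or above a set limit, where the score is 100 minus the three-replicate mean percent of control signal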
* marks the source's active call; other numbers are inactive results; x = no result given. Sampled rows, rich in hits. Any-hit rate of the full collection: about 0.46%.

SMILES | GIV-Gai inh | HCMV UL50-53 inh | GIV Gai FP conf | GIV Gai AS conf
COc1ccc(/C(O)=C/c2nc3cc(C)ccc3oc2=O)c(OC)c1 | 54* | -23 | 147 | 40985
Cc1ccc2oc(=O)c(/C=C(\O)c3ccco3)nc2c1 | 109 | -24 | x | x
Cc1nc(C)c(C(=O)N2CCN(S(=O)(=O)c3ccc4c(c3)sc(=O)n4C(C)C)CC2)s1 | 101 | x | x | x
CCN(C(=O)Cn1cc(C(F)(F)F)ccc1=O)C1=CCCC1 | x | -10 | x | x
CCOc1ccc(C(=O)Nc2ccc3oc(-c4ccncc4)nc3c2)cc1Br | 108 | x | x | x
CCOc1ccc(C(=O)Nc2ccc(-c3nc4ccccc4o3)cc2)cc1Br | 69* | 7 | 79 | 44420
CCc1cc(Sc2ccc(NC(=O)Nc3ccc4c(c3)OCCO4)cc2)n2nc(C)nc2n1 | 105 | x | x | x
CCCC1C2CN(C(C)C)CC=C2C(C#N)=C(N)C1(C#N)C#N (stereo not drawn) | 79* | -62 | 66 | 23056
CCOC(=O)N1CC=C2C(C#N)=C(N)C(C#N)(C#N)C(CC)C2C1 (stereo not drawn) | 126 | -33 | x | x
CC(=O)Oc1cccc(NC(=O)CC2SC(N)=NC2=O)c1 (stereo not drawn) | 105 | -10 | x | x

In a second layout: entries from further up
Order of values: GIV-Gai inh | HCMV UL50-53 inh | GIV Gai FP conf | GIV Gai AS conf
COc1ccc(/C(O)=C/c2nc3cc(C)ccc3oc2=O)c(OC)c1
 : 54* | -23 | 147 | 40985
CCOc1ccc(C(=O)Nc2ccc(-c3nc4ccccc4o3)cc2)cc1Br
 : 69* | 7 | 79 | 44420
CCN(C(=O)Cn1cc(C(F)(F)F)ccc1=O)C1=CCCC1
 : x | -10 | x | x
CCc1cc(Sc2ccc(NC(=O)Nc3ccc4c(c3)OCCO4)cc2)n2nc(C)nc2n1
 : 105 | x | x | x

Continued:
SMILES | GIV-Gai inh | HCMV UL50-53 inh | GIV Gai FP conf | GIV Gai AS conf
CCOC(=O)COc1ccccc1C1Nc2ccccc2-c2nnc(SC)nc2O1 (stereo not drawn) | 105 | -26 | x | x
CCCSc1nnc2c(n1)OC(c1ccco1)Nc1ccccc1-2 (stereo not drawn) | 78* | -36 | 60 | 5688*
CCCSc1nnc2c(n1)OC(c1ccccc1OCC(=O)OCC)Nc1ccccc1-2 (stereo not drawn) | 21* | -16 | 59 | 34096*
CCCSc1nnc2c(n1)OC(c1ccccc1)Nc1ccccc1-2 (stereo not drawn) | 109 | -12 | x | x
CSc1nnc2c(n1)OC(/C=C/c1ccccc1[N+](=O)[O-])Nc1ccccc1-2 (stereo not drawn) | 105 | 3 | x | x
CCSc1nnc2c(n1)OC(c1ccc(Br)cc1)Nc1ccccc1-2 (stereo not drawn) | 24* | -10 | 30* | 29425
CCSc1nnc2c(n1)OC(c1cc(Br)ccc1OC)Nc1ccccc1-2 (stereo not drawn) | 106 | -4 | x | x
CCCCSc1nnc2c(n1)OC(/C=C/c1ccccc1[N+](=O)[O-])Nc1ccccc1-2 (stereo not drawn) | 80* | -31 | 60 | 33401*
CCCc1cc2c(=O)c(-c3nc4ccccc4n3C)coc2cc1O | x | -8 | x | x
CCCNC(=O)CCc1nnc2ccc(N(CC)CC)nn12 | 107 | -8 | x | x
Brc1ccccc1-c1nn2c(-c3ccccn3)nnc2s1 | 112 | 4 | x | x
O=c1oc(-c2cccc(C(F)(F)F)c2)nc2cccc(Cl)c12 | 97 | x | x | x
O=C(NC1CCCC1)c1ccc2c(=O)n(CC3CCCO3)c(SCc3ccccc3F)nc2c1 (stereo not drawn) | 102 | x | x | x
COC(=O)C1=C(Nc2ccc(OC(=O)Nc3ccc(OC(F)(F)F)cc3)cc2)CSC1 | 98 | -19 | x | x
Cn1c(=O)c(-c2ccccc2)c2c3c(cccc31)C(=O)c1ccccc1-2 | 110 | x | x | x
Cn1c(=O)c(C(=O)CS(=O)(=O)O)c2c3c(cccc31)C(=O)c1ccccc1-2 | 55* | x | 22* | 7785*
COc1ccc2cc(C#N)c(=S)[nH]c2c1 | 108 | -98 | x | x
CC1=C(C(=O)N2CCCCC2)C(c2ccc(Br)cc2)C2=C(CCCC2=O)N1 (stereo not drawn) | x | -52 | x | x
Nc1c(C(=O)N2CCc3ccccc32)sc2nc(C(F)(F)F)c3c(c12)CCCC3 | 95 | x | 75 | 39316
O=C(c1sc2ccccc2c1Cl)N1CCc2ccccc21 | x | 5 | x | x
CCOc1ccc(-n2c(=S)sc3c(=O)n(-c4ccccc4)c(=S)[nH]c32)cc1 | 110 | x | x | x
Cc1nnc2c3ccccc3nc(NCCC3=CCCCC3)n12 | 104 | -12 | x | x
O=C(O)COc1ccc(/C=C2\C(=O)NC(=S)N(c3ccc(F)cc3)C2=O)cc1Br | 92 | -33 | x | x
O=C(O)COc1ccc(/C=C2\C(=O)NC(=S)N(c3ccc(Cl)cc3)C2=O)cc1Br | 73* | -30 | 34* | 55572
COc1cc(/C=C2\C(=O)NC(=O)N(C)C2=O)ccc1OCc1ccc(C(=O)O)cc1 | 107 | 0 | x | x
O=C1NC(=S)NC(=O)C1=Cc1ccc(OCc2ccc(C(=O)O)cc2)c(Br)c1 | 86 | -20 | 11* | 2330*
O=C(NCCC1=CCCCC1)C1CCN(c2ccc(N3CCOCC3)nn2)CC1 | 101 | -24 | x | x
Cn1c(Cc2cccs2)nnc1SCC(=O)c1ccc2c(c1)OCO2 | x | -22 | x | x
Cc1ccccc1OCCn1c(CCCNC(=O)C2CCCCC2)nc2ccccc21 | 98 | x | x | x
O=C(NCCn1ccc2ccccc21)c1ccc(F)cc1 | 60* | x | 64 | 37703
